Experimental data: patent publication US9988392B2, “7-beta-alkyl analogs of orvinols” (dated 2018)

Target: μ-opioid receptor (Homo sapiens (Human), UniProt P35372)
Test: μ-opioid receptor [35S]GTPγS functional assay, HEK-293 cells
Conditions: for μ Emax (%): maximal effect relative to DAMGO, HEK-293 cells

SMILES: COc1ccc2c3c1O[C@H]1C4(OC)CC[C@@]5(C[C@]4(C)COCc4cc6ccccc6s4)[C@@H](C2)N(C)CC[C@]315
- μ Emax (%): 87.5 ± 2.33%

SMILES: COc1ccc2c3c1O[C@H]1C4(OC)CC[C@@]5(C[C@]4(C)COCc4ccoc4)[C@@H](C2)N(C)CC[C@]315
- μ Emax (%): 93.5 ± 1.76%
- EC50 (read-out: μ EC50, μ GTP EC50, membranes from HEK-293 cells): 402 nM
